Reference: BindingDB's records for doi:10.1021/jm960047o (Tohoku College of Pharmacy, 1996)

Chains of the proteins cited; added tags and fusions are not shown. Lines headed by an entry give the natural chain unless they say otherwise; changes in a name come on top.
UniProt P11511: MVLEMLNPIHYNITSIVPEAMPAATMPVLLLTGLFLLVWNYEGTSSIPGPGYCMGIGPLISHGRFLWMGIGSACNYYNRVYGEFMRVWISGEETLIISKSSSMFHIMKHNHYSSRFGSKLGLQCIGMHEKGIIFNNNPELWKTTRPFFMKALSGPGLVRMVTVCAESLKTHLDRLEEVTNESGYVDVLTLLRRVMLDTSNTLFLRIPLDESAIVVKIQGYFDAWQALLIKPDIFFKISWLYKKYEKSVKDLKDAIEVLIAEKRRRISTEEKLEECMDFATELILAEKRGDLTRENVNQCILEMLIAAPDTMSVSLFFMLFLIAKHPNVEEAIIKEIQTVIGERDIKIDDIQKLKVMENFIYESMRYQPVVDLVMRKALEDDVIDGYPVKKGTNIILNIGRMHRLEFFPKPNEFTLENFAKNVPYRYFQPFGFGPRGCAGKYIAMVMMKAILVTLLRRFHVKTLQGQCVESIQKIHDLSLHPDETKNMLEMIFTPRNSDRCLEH

Molecular target: Aromatase (Homo sapiens, UniProt P11511)

Work on `CC12CCC3C(CCC4=CCCCC43C)C1CCC2=O` (stereo unspecified) yielded an IC50 of 60 nM.
